Data reported in PubChem BioAssay (NCI).
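Results reflect a 48-hour exposure of cells in 96-well plates to compound at five concentrations. Here, GI50 denotes the concentration required for 50% inhibition of growth. TGI marks complete inhibition of growth.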

System: SW-620 colon
Assay: inhibition of tumour cell growth, NCI panel, 48 h

Work on CC[C@H](C)[C@H]1NC(=O)/C(=C(\C)O)C1=O yielded a GI50 of 21.4 µM and a TGI of 76.5 µM.
